Experimental data taken from article PMC8062000, “High-throughput screening of the ReFRAME, Pandemic Box, and COVID Box drug repurposing libraries against SARS-CoV-2 nsp15 endoribonuclease to identify small-molecule inhibitors of viral activity” (PLoS ONE, 2021).

Molecular target: SARS-CoV-2 nsp15 endoribonuclease (endoU) (Severe acute respiratory syndrome coronavirus 2, UniProt P0DTD1)
Assay: biochemical
Conditions: read-out: 1° FRET Assay % inhibition

Compound: COCCn1c2c([n+](Cc3cnccn3)c1C)C(=O)c1ccccc1C2=O [Sepantronium bromide]
- inhibition at 10 µM: 50%
